Source: patent US20220193384A1, “CUTANEOUS DEVICE FOR STORING AND RELEASING MOLECULES, AND CORRESPONDING METHOD” (priority 2019, published 2022)

Assay: Skin permeation, static Franz diffusion cell, passive and electrothermally activated patch
[1] = electrothermal activation 1 V, 10 min, stock solution 100 μg mL^−1 for loading, mouse skin
[2] = passive, no activation, stock solution 100 μg mL^−1 for loading, mouse skin

insulin
Drug permeated under electrothermal activation at temperature below 50° C. (10 min activation, varied voltage/temperature, FIG. 8A): an increased amount could be detected | Active, amount of drug permeated [1]: 24 µg/mL | Flux active [1]: 2.60 μg cm^−2 h^−1 | Flux passive [2]: 0 μg cm^−2 h^−1 | Passive, amount of drug permeated [2]: 0 µg/mL
